# Values of other authors in article PMC12276038, “Impact of Chelation on Reactivity and Cytotoxicity of Hemilabile Biphenyl Gold(III) N‐Heterocyclic Carbene Complexes” (Chemmedchem, 2025).
# Settings: molecules of known Log(k′w) used for calibration; cited from earlier work
compound,measurement,value
CCCCc1ccccc1 [Butylbenzene],log(k’w) of log P standard mix,4.6
